Experimental findings from article PMC9649962, “Early diagnosis of bladder cancer by photoacoustic imaging of tumor-targeted gold nanorods” (Photoacoustics, 2022) are described below.

The test system of one assay is MB49-Luc cells. Kind of assay: Cell adhesion to HSA conjugate-coated plates, MB49-Luc. The assay is classed as cell-based, murine. Particulars: 30 µg/ml in images, 1–2 h, 37 °C, crystal violet, n = 4. On the procedure:
(§1) 96-well PVC microtiter plates were coated with Iso4-HSA or GNRs@Chit-Iso4 in 50 mM sodium phosphate, pH 7.3, containing 150 mM sodium chloride, (overnight incubation at 4 °C). The plates were washed and blocked with 2% BSA in DMEM or RPMI-1640 (200 μl/well, 1 h). MB49-Luc and 5637 cells were detached with DPBS-E, washed twice with DPBS, and suspended in DMEM or RPMI-1640 containing 0.1% BSA (binding buffer-3), and added to the coated-plates (1.5 ×10^5 cells/well, 100 μl). After 1–2 h of incubation at 37 °C, 5% CO2, the plates were washed with binding buffer-3. Adherent cells were fixed and stained with 0.5% crystal violet in 20% methanol. After washing with water, the dye was extracted from cells using a 10% acetic acid solution (140 μl/well) and the absorbance at 570 nm was measured using a microplate reader. The effect of urine on the pro-adhesive properties of GNRs@Chit-Iso4 was investigated as described above, except that the cells were seeded in binding buffer-3 or binding buffer-1 and various amounts of human urine (obtained from a healthy volunteer).

Another assay concerns 5637 cells. Kind of assay: Cell adhesion to HSA conjugate-coated plates, 5637. It counts as cell-based, human. To be noted: 30 µg/ml in images, 1–2 h, 37 °C, crystal violet, n = 4. On the procedure:
as §1

In the case of “*HSA: HSA activated with sulfo-SMCC and quenched with β-mercaptoethanol instead of Iso4”, the cell adhesion result was “but not the activated HSA lacking the peptide (*HSA), promoted and supported cell adhesion” in the assay with MB49-Luc cells; “but not the activated HSA lacking the peptide (*HSA), promoted and supported cell adhesion” in the assay with 5637 cells.
